For one substance, Human isoform potency (EC50 nM), cAMP assay results are on record in patent publication US20200283491A1.

Sequences of proteins named here, by UniProt entry; tags and fusion partners are left off. A change or cut given only in a name is not applied to a line headed by its entry.
UniProt P50391: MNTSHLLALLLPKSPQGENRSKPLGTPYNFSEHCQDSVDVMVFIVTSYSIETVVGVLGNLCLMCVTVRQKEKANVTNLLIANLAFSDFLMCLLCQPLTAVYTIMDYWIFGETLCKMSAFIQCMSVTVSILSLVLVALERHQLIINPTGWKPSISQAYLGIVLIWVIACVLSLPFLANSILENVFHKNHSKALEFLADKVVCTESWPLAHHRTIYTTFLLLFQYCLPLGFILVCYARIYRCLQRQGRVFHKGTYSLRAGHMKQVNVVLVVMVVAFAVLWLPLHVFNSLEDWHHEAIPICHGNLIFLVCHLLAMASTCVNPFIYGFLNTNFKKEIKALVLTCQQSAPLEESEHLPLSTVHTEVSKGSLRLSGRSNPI

For the assay, the target named is human Y4 receptor (human) (UniProt P50391). Kind of assay: cell-based or functional assay.

Take “PYY3-36 (from UniProt P10082 31-64) (peptide)”: the Human isoform potency (EC50 nM), cAMP assay is 137 nM.
